{
  "source": "patent US20080194491A1",
  "about": "“Methods of Diagnosing, Preventing, and Treating Early Onset of Pulmonary Hypertension” (priority 2002, published 2008)",
  "molecules": {"B1": {"name": "BMP2: bone morphogenetic protein (protein, UniProt P12643 283-396, looked up)", "Bone morphogenetic protein 2": "QAKHKQRKRLKSSCKRHPLYVDFSDVGWNDWIVAPPGYHAFYCHGECPFPLADHLNSTNHAIVQTLVNSVNSKIPKACCVPTELSAISMLYLDENEKVVLKNYQDMVVEGCGCR"}},
  "key": {"[1]": {"system": "Human pulmonary artery epithelial cells (HPAEC)", "assay": "HPAEC apoptosis induced by serum withdrawal (flow cytometry Annexin V, TUNEL)", "format": "cell-based", "conditions": "pretreatment 100-200 ng/ml for 2 hours; flow cytometry and TUNEL assay", "experimental": "(§1) The inventors investigated the effect of BMPR2 signaling on pulmonary endothelial cell proliferation and survival. Human pulmonary artery […] cells (HPAEC) were grown in EBM-2 medium supplemented with 2% FBS and growth factors (Clonetics). Apoptosis was induced either by serum withdrawal (see FIG. 17) or exposure of cells to TNFα. Cells were pretreated with BMP-2 or BMP-7 (100-200 ng/ml) for 2 hours and grown in the presence or absence serum or TNF (10-20 ng/ml) for 24-48 hours. Apoptosis was evaluated by three independent methods: 1) flow cytometry using Annexin V, a Ca2+ dependent phospholipid-binding protein with affinity for phosphatidylserine (PS; translocation of PS from the inner leaflet of plasma membrane to the outer layer occurs during the early stage of apoptosis), 2) TUNEL assay and, 3) caspase activity assay."}, "[2]": {"system": "Human pulmonary artery cells (HPAEC)", "assay": "HPAEC apoptosis induced by TNF (caspase activity assay)", "format": "cell-based", "conditions": "pretreatment 100-200 ng/ml for 2 hours, TNF 10-20 ng/ml", "experimental": "as §1"}},
  "data": [
    {"molecule": "B1", "values": [
      {"measurement": "apoptosis induced by serum withdrawal", "setting": "[1]", "value": "protected the cells from apoptosis"},
      {"measurement": "apoptosis induced by TNF treatment", "setting": "[2]", "value": "protect the cells from apoptosis"}
    ]}
  ]
}
